Results on three compounds are retold here after paper PMC3513622 (Antiviral research, 2012).

The test system of one series is Akata cells. As to the kind of experiment: Cell viability of Akata cells, modified MTS assay. Particulars: 48 hours, 0.0005-30μM. On the technique in general: Tetrazolium assays rely on reduction of a dye to a coloured formazan, in cell work by metabolically active cells.

As usually defined, the CC50 is the concentration giving 50% cytotoxicity. High values mean better tolerance by the cells, low ones harm at low concentration. Turning to `Nc1ncnc2c1c(I)cn2[C@@H]1O[C@H](CO)[C@@H](O)[C@H]1O` [5-Iodotubercidin], in the series on Akata cells, the midpoint of cytotoxicity, the CC50, lay at 1120 nM. For the same compound, the “TI (therapeutic index, CC50/IC50 ratio)” value in the series on Epstein-Barr virus (EBV) was 1.
Regarding `Cc1ccc(S(=O)(=O)/C=C/C#N)cc1` [BAY 11-7082], the “TI (therapeutic index, CC50/IC50 ratio)” value in the series with Epstein-Barr virus (EBV) amounted to 13.
In the series with Akata cells, `COC(=O)/C=C/c1cc(O)ccc1O` [Erbstatin analog] yielded a CC50 of 3900 nM. In the series on Epstein-Barr virus (EBV), the “TI (therapeutic index, CC50/IC50 ratio)” value turned out to be 2.
